# Laboratory results: US9278960B2, “Quinoline carboxamide and quinoline carbonitrile derivatives as mGluR2-negative allosteric modulators, compositions, and their use” (Merck Sharp & Dohme Corp., priority 2011, dated 2016)
# By UniProt entry, the sequences of proteins in these tests, tags left out. Residues count along the entry.
# UniProt Q14416, 19-872: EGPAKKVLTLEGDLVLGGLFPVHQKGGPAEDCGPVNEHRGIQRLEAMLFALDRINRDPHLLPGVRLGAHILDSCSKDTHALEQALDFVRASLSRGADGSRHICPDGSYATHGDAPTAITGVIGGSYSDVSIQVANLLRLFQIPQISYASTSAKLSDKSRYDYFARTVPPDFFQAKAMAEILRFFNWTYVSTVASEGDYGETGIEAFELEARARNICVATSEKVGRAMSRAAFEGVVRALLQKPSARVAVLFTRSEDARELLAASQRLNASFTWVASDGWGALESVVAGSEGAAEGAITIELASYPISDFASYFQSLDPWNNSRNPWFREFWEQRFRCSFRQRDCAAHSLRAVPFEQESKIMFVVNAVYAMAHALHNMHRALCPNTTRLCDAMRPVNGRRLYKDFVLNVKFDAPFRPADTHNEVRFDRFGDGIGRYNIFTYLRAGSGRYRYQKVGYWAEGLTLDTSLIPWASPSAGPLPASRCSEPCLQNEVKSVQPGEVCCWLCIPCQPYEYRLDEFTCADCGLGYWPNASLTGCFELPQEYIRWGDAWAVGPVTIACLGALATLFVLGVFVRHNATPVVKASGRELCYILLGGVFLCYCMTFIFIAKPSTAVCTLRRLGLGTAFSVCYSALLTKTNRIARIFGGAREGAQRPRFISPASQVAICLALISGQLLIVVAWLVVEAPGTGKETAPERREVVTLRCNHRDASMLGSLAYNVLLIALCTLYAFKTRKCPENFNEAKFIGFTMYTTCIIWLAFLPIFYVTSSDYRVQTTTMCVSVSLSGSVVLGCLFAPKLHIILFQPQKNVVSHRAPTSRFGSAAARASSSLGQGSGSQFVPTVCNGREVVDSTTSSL
# Biological target: human mGluR2 (Homo sapiens (Human), UniProt Q14416)
# Experiment: FLIPR Ca2+ mobilization antagonist assay in CHO dhfr- cells expressing recombinant human mGluR2 and Gα16
# Assay type: cell-based
# Conditions: antagonist response after addition of 2,500 nM glutamate, Fluo-4 AM, FLIPR384
row,SMILES,IC50 [nM]
1,"Cc1cc(Cl)ccc1-c1cc(C(N)=O)nc2ccccc12 [Example 1-17, 4-(4-chloro-2-methylphenyl)quinoline-2-carboxamide]",368
2,"CC1(c2ccccc2)CC(=O)N(Cc2ccc3c(-c4ccc(F)cc4)cc(C(N)=O)nc3c2)C1=O (stereo not drawn) [Example 2-13, 4-(4-fluorophenyl)-7-[(3-methyl-2,5-dioxo-3-phenylpyrrolidin-1-yl)methyl]quinoline-2-carboxamide]",71
3,"COc1ccc(-c2cc(C(N)=O)nc3cc(CN4C(=O)CCC4=O)ccc23)cc1 [Example 2-38, 7-[(2,5-dioxopyrrolidin-1-yl)methyl]-4-(4-methoxyphenyl)quinoline-2-carboxamide]",27
4,"Cc1ccc(-c2cc(C(N)=O)nc3cc(CN4C(=O)CCC4=O)ccc23)cc1 [Example 2-29, 7-[(2,5-dioxopyrrolidin-1-yl)methyl]-4-(4-methylphenyl)quinoline-2-carboxamide]",5
5,"NC(=O)c1cc(-c2ccc(F)cc2)c2ccc(CN3C(=O)CC4(CCCC4)C3=O)cc2n1 [Example 2-18, 7-[(1,3-dioxo-2-azaspiro[4.4]non-2-yl)methyl]-4-(4-fluorophenyl)quinoline-2-carboxamide]",28

# Continued, values first:
row,IC50 [nM],SMILES
1,170,"Cc1cn(C2CCN(Cc3ccc4c(-c5ccc(F)cc5)cc(C(N)=O)nc4c3)CC2)cn1 [Example 4-47, 4-(4-fluorophenyl)-7-{[4-(4-methyl-1H-imidazol-1-yl)piperidin-1-yl]methyl}quinoline-2-carboxamide]"
2,14,"C[C@@H]1CN(Cc2ccc3c(-c4cnc(CF)s4)cc(C(N)=O)nc3c2)C[C@H](C(F)(F)F)O1 [Example 4-116, 4-[2-(fluoromethyl)-1,3-thiazol-5-yl]-7-{[(2R,6R)-2-methyl-6-(trifluoromethyl)morpholin-4-yl]methyl}quinoline-2-carboxamide]"
3,53,"NC(=O)c1cc(-c2ccc(F)cc2)c2ccc(CN3CCCC(n4cncn4)C3)cc2n1 (stereo not drawn) [Example 4-48, 4-(4-fluorophenyl)-7-{[3-(1H-1,2,4-triazol-1-yl)piperidin-1-yl]methyl}quinoline-2-carboxamide]"
4,30,"Cn1cc(-c2cc(C(N)=O)nc3cc(CN4CCCC(F)(F)C4)ccc23)cn1 [Example 4-73, 7-[(3,3-difluoropiperidin-1-yl)methyl]-4-(1-methyl-1H-pyrazol-4-yl)quinoline-2-carboxamide]"
5,10,"C[C@@H]1CNC(C(F)(F)F)CN1Cc1ccc2c(-c3ccc(F)cc3)cc(C(N)=O)nc2c1 (stereo partly drawn) [Example 4-101, 4-(4-fluorophenyl)-7-{[(2R)-2-methyl-5-(trifluoromethyl)piperazin-1-yl]methyl}quinoline-2-carboxamide]"
6,53,"C[C@@H]1CN(Cc2ccc3c(-c4cnc(C(F)F)s4)cc(C(N)=O)nc3c2)C[C@H](C(F)(F)F)O1 [Example 4-117, 4-[2-(difluoromethyl)-1,3-thiazol-5-yl]-7-{[(2R,6R)-2-methyl-6-(trifluoromethyl)morpholin-4-yl]methyl}quinoline-2-carboxamide]"
7,> 1000,"Cn1cc(-c2cc(C(N)=O)nc3cc(CN4CCC[C@@H](O)C4)ccc23)cn1 [Example 4-121, 7-{[(3R)-3-hydroxypiperidin-1-yl]methyl}-4-(1-methyl-1H-pyrazol-4-yl)quinoline-2-carboxamide]"
